Results on one compound are retold here after patent US9868746B2, “Substituted 5-aminothieno[2,3-C]pyridazine-6-carboxamide analogs as positive allosteric modulators of the muscarinic acetylcholine receptor M4” (Vanderbilt University, priority 2012, dated 2018).

Protein sequences, listed by entry. Tags and fused reporters are not part of them.
UniProt P08173, whole entry, looked up: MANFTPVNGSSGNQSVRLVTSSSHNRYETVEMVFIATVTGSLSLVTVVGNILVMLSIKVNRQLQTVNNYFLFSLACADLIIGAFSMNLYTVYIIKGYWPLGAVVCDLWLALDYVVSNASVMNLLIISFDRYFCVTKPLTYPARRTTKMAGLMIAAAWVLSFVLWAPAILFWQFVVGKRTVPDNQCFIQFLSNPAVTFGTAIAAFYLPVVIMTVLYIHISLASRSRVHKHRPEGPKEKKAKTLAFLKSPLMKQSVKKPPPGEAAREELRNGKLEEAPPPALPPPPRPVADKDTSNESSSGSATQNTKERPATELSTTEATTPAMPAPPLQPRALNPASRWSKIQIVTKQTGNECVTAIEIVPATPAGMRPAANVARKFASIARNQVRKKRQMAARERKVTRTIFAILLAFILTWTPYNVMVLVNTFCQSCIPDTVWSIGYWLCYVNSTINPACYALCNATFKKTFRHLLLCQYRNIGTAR

This assay deals with mAChR M4 (Homo sapiens, UniProt P08173). Nature of the assay: mAChR M4 cell-based functional assay (calcium mobilization, potentiation of EC20 acetylcholine response). Background: Calcium assays in cells follow changes in intracellular calcium, usually with a dye or a luminescent sensor.

Regarding `Cc1nnc2sc(C(=O)NC3CN(C(=O)Oc4cccnc4)C3)c(N)c2c1C`, the “Emax (%)*” value (% ACh maximum at 30 μM) amounted to 66%. Further, the EC50 (mAChR M4 cell-based functional assay, >10,000 estimated for low potency compounds without plateau) was 38 nM.

As usually defined, the EC50 is the concentration needed to bring the measured effect to its halfway point.
